{"sequences": {"note": "Amino acid sequences for entries named in this document (tags omitted). Residues count along the entry.", "UniProt P17787, 26-502": "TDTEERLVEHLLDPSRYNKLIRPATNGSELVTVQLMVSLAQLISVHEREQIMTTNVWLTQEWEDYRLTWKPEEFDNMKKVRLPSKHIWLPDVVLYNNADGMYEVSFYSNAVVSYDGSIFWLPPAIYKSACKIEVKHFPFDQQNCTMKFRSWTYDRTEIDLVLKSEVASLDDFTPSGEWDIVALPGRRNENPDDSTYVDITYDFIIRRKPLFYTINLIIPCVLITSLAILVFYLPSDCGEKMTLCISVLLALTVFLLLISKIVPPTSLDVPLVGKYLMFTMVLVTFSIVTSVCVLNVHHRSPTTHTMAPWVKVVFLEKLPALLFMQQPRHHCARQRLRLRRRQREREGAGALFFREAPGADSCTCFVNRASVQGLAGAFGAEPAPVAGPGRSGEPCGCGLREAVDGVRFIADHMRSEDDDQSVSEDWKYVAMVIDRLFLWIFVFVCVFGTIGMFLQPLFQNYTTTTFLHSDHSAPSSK", "UniProt P43681, 29-627 limits assumed": "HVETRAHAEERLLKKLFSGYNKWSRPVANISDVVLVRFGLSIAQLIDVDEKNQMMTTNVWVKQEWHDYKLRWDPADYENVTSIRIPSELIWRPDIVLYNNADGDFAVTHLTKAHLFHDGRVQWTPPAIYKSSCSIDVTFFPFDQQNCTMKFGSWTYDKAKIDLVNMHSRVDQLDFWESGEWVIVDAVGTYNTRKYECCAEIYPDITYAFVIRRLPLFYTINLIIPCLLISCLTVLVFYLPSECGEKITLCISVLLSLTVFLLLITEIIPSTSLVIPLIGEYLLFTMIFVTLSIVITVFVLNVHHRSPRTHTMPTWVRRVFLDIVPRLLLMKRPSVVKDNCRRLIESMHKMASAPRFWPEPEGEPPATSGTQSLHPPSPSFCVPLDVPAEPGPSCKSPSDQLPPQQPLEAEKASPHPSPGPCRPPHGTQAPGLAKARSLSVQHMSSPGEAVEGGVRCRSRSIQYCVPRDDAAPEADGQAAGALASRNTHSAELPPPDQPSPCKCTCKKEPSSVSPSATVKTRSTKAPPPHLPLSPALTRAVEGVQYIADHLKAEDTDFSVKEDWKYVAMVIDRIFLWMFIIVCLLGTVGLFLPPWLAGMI"}, "source": "patent US20090312356A1", "about": "“NICOTINIC AGONISTS SELECTIVE FOR THE ALPHA7 RECEPTOR SUBTYPE, THE PROCESS FOR THE PREPARATION THEREOF AND PHARMACEUTICAL COMPOSITIONS THEREFROM” (priority 2006, published 2009)", "target": "T1, hα4β2 receptor subtype (Homo sapiens, UniProt P17787+P43681)", "T1 construct": "expressed in transfected cells; host or cells: HEK 293 cells, transient calcium phosphate transfection, equal amounts of both subunit cDNAs", "type": "cell-based", "details": "1 mM", "data": [{"smiles": "CO[C@H]1CC=C2CCN3CCC4=C(CC(=O)OC4)[C@]23C1", "note": "[dihydro-β-erythroidine]", "values": [{"measurement": "effect on acetylcholine-induced hα4β2 current", "value": "blocked"}]}]}
